Biological target: Sodium-dependent dopamine transporter (Rattus norvegicus, UniProt P23977)
Experiment: Inhibition of dopamine DA reuptake
In short: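 Uptake into synaptosomes in Krebs-phosphate buffer, pH 7.4, with ascorbic acid 1 mg/mL and pargyline 50 µM. Final tracer was 5 nM [3H]DA or 2 nM [3H]5HT. Incubated at 25 °C for 15 min (DA) or 30 min (5HT), then filtered and filter tritium counted. IC50 derived.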

Protein sequences, listed by entry. Tags and fused reporters are not part of them.
UniProt P23977, whole entry: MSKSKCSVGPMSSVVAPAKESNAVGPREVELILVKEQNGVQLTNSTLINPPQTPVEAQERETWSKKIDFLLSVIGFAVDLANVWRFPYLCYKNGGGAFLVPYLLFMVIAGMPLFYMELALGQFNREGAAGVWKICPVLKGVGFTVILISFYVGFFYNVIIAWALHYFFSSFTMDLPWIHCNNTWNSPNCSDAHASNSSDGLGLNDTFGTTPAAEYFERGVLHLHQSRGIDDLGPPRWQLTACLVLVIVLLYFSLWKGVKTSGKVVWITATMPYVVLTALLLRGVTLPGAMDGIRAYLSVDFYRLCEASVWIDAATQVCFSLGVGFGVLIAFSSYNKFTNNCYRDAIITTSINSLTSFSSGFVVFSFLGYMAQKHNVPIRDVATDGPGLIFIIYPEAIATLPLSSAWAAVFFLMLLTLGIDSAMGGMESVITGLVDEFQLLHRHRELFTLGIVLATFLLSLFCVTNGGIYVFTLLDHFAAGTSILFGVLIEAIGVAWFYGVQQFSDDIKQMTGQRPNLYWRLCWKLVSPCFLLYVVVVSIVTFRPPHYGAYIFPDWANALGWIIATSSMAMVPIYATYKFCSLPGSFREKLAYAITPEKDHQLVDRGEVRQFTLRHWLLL

**Q.** Which IC50 does the source give for C[C@@H]1CN(CCOC(c2ccccc2)c2ccccc2)[C@@H](C)CN1CCCc1ccccc1 here?
**A.** Its IC50 is 9.6 nM.
